# Only some compounds are listed: those with a hit (about 3.7% of all), similar ones and a draw of the others.
# A549 tox-1 = A549 cytotoxicity, counter-screen for Nrf2 inhibitors; Potency, µM (titrated, usually from 46 µM), inactives show at the top dose activity change, negative = cytotoxicity, most hits filed as inhibitors; A549 ARE-Fluc cells, CellTiter-Fluor viability, 18-24 h; actives 0.16% (n = 390,000); note: potency is the fitted concentration of half-maximal effect; % is set by controls: 0 for no effect and ±100 for the full control effect
#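 A549 ARE-Fluc cells in 5% FBS OPTI-MEM, 5000 cells/well, rested 2 h then exposed to compounds in concentration-response for 18-24 h at 37 °C. Viability by CellTiter-Fluor fluorescence (Ex 405/Em 525) after 30 min; luciferase luminescence (BugLite, 15 min, RT) read afterwards.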
# ClpP mod = qHTS Assay for Activators of ClpP | AID 651965, 2013 | purified B. subtilis ClpP, FRET peptide cleavage, 20 min | ATP-dependent Clp protease proteolytic subunit (Bacillus subtilis (strain 168)), P80244 | actives 1.9% (n = 340,000) | Potency, µM (top dose mostly 57.5 µM), without a hit: top-dose activity change, negative = active; active = well fitted falling curve with a large enough effect; inconclusive = small, poorly fitted or top-dose-only effect; inactive = no such curve, though single readings can be large or run the other way; note: potency is the fitted concentration of half-maximal effect; the source files actives as falling curves though it sought activators and does not explain the sign; nearly all actives have a fitted effect of over 65% in size
#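 FRET quenching reversal measured ClpP activation: 10 microg/mL B. subtilis ClpP at pH 8 with the FRET-FV decapeptide, read at 430 nm after 320 nm excitation. The 20-min minus 0-min signal was scaled between DMSO/no-enzyme wells and ADEP (5.8 microM final).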
# Nrf2 inh = inhibitors of Nrf2 signaling; A549 ARE-Fluc reporter, luciferase luminescence, 18-24 h; AID 504444; Potency, µM (top dose mostly 46 µM), for the others: top-dose activity change, negative = inhibition, most hits filed as inhibitors; actives 2.1% (n = 360,000); note: potency is the fitted concentration of half-maximal effect; % is set by controls: 0 for no effect and ±100 for the full control effect; nearly all actives have a fitted effect of over 60% in size
#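 Quantitative HTS in A549 cells stably bearing an antioxidant response element-firefly luciferase construct. Inhibition of Nrf2-driven transcription was scored by luminescence after 18-24 h of compound exposure at 37 °C.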
# Nrf2 activator = activates Nrf2 signaling. AREc32 ARE-luciferase reporter (MCF7-derived line), luminescence, 24 h. Potency, µM (top dose mostly 46.1 µM), for inactives: at the highest dose activation, hits mostly activators. actives 0.31% (n = 410,000). AID 624171; note: potency is the fitted concentration of half-maximal effect; % of control where 0% means no effect; nearly all actives have a fitted effect of over 65% in size
#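 Each well held 1000 AREc32 cells, which were incubated with compound for 24 hr at 37 deg C after overnight attachment, and ARE reporter activity was quantified by firefly luciferase luminescence.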
# TCR activator = T cell receptor activation. primary human leukocytes, anti-CD3, IL-2 HTRF, 48 h. 330,000 tested, under 10 active. Potency, µM (doses to about 9.22 µM), for inactives: at the top dose activation of IL-2 secretion, usual class: activators; note: % of control where 0% means no effect
#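 IL-2 release read by HTRF sandwich (Eu cryptate donor, d2 acceptor, 665 nm emission) after 48 hr exposure of primary human leukocytes to compound together with anti-CD3 beads in the absence of co-stimulatory signals.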
# miR-21 reporter = miR-21 reporter, rising signal. 340,000 tested, under 10 active. Potency, µM (highest dose often 38.3 µM), for the others: at the highest dose reporter change, positive = more light. HeLa miR-21 FLuc reporter, luciferase, 48 h. AID 2288; active = well fitted rising curve with a large enough effect; inconclusive = small, poorly fitted or top-dose-only effect; inactive = no such curve, though single readings can be large or run the other way;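 further: % of control where 0% means no effect; miR-21 action dims this reporter so a rising signal means less miR-21 action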
#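 Using DMEM plus 10% FBS, HeLa miR-21-FLuc cells are incubated with test compounds (final up to about 40uM) for 48 hours; firefly luciferase signal is then imaged following reagent-mediated lysis.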
# FLuc enzyme inh = counter-screen for Nrf2 inhibitors: firefly luciferase enzyme inhibition. shares compounds with Nrf2 inh. purified firefly luciferase, luminescence inhibition. Potency, µM (top dose mostly 57.5 µM), inactives show top-dose activity change, negative = inhibition, actives largely listed as inhibitors. actives 4% (n = 1,400); note: potency is the fitted concentration of half-maximal effect; % is set by controls: 0 for no effect and ±100 for the full control effect; nearly all actives have a fitted effect of over 65% in size
# A549 tox-2 = counter-screen for Nrf2 inhibitors: cytotoxicity in A549 ARE cells; Potency, µM (series often up to 46.1 µM), without a hit: top-dose activity change, negative = cytotoxicity, usual class: inhibitors; A549 ARE-Fluc cells, cytotoxicity counterscreen; actives 2% (n = 1,400); shares compounds with Nrf2 inh;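 note: potency is the fitted concentration of half-maximal effect; cells exposed to compounds for 18 to 24 hours; % is set by controls: 0 for no effect and ±100 for the full control effect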
# Nrf2 ARE inh = Nrf2 inhibition confirmed, A549 ARE-luciferase; shares compounds with Nrf2 inh; AID 720524; actives 74% (n = 1,400); Potency, µM (highest dose often 46.1 µM), for inactives: at the top dose activity change, negative = inhibition, usual class: inhibitors; A549 ARE-firefly luciferase reporter, luminescence; note: potency is the fitted concentration of half-maximal effect; % is set by controls: 0 for no effect and ±100 for the full control effect; nearly all actives have a fitted effect of over 65% in size
# An asterisk follows results filed as active; u = inconclusive; x = not tested or not shown; [ ] = remark or other dose. Unless noted, calls come from the whole dose curve; as a rule, active = well fitted curve in the direction sought with a large enough effect; inconclusive = small, poorly fitted or top-dose-only effect, or another doubt; inactive = no such curve, though single readings can be large; an effect the other way counts as inactive or inconclusive.
SMILES,A549 tox-1,ClpP mod,Nrf2 inh,Nrf2 activator,TCR activator,miR-21 reporter,FLuc enzyme inh,A549 tox-2,Nrf2 ARE inh
CC(=O)c1cccc(NS(=O)(=O)c2ccc(C(=O)Nc3ccccc3)cc2)c1,-4%,1%,7.3µM*,-1%,4%,22%,-10%,-11%,4.1µM*
Cc1cc[n+](CCC2CCCCC2)c2ccccc12,x,4%,x,x,x,x,2%,-10%,u
CCCCCCC[n+]1ccc(C)c2ccccc21,x,-26%,x,x,x,x,2%,-15%,x
Cc1occc1C(=O)NNC(=O)CN1C(=O)NC(C)(c2ccccc2)C1=O (centres undefined),-7%,-1%,-3%,-1%,-4%,x,x,x,x
OC(c1cc(F)cc(Cl)c1)c1ncc(-c2ccc3ccccc3c2)[nH]1 (centres undefined),x,5%,x,0%,x,x,x,x,x
N#Cc1ccc(-c2cn(-c3ccccc3)c3[n+]2CCCS3)cc1,1%,x,4%,0%,-2%,3%,x,x,x
COc1ccc(-n2cc(-c3ccc(C)cc3)[n+]3c2SCC3)cc1,u,u,9.2µM*,2%,1%[46.1 µM],u,2%,-7%,5.2µM*
Cc1ccc(-c2cn(-c3ccccc3)c3[n+]2CCCS3)cc1,u,0%,4.6µM*,0%,-1%,u,2%,-5%,6.5µM*
O=S(=O)(c1ccc(Cl)nc1)N1CCCC1,0%,0%,2%,0%,3%,x,x,x,x
COc1cc(OC)c(/C=C/c2cc[n+](C)c3ccccc23)c(OC)c1,x,3%,x,x,x,x,0%,-28%,3.7µM*
Cc1cc(N(C)C)cc(C)c1/C=C/c1cc[n+](C)c2ccccc12,x,-18%,x,x,x,x,-12%,-22%,x
COc1cc(OC)c(OC)cc1/C=C/c1cc[n+](C)c2ccccc12,x,-5%,x,x,x,x,x,x,x
O=C(Nc1cc(F)ccc1F)N1CCC(CN2CCOCC2)CC1,-9%,1%,-4%,1%,x,-9%,x,x,x
O=C(NCCCn1ccnc1)c1ccc(N2CCCCCC2)c([N+](=O)[O-])c1,-18%,x,2.9µM*,3%,4%,u,-16%,-12%,4%
CC1CC(C)(C)CC2(C1)NC(=O)N(CC(=O)N(C)Cc1nc3ccccc3c(=O)[nH]1)C2=O (centres undefined),-1%,1%,-7%,0%,1%,x,x,x,x
O=C(Nc1ccc(OC(F)F)cc1)c1nc(SCc2ccccc2F)ncc1Cl,x,-1%,x,x,x,x,x,x,x
COc1cc(C=NO)nc(-c2ccccn2)c1,-23%,0%,1.2µM*,0%,0%,x,-12%,-6%,2.6µM*
COc1cc(/C=C2\COC/C(=C\c3cc(OC)c(OC)c(OC)c3)C2=O)cc(OC)c1OC,9%,x,5.8µM*,-3%,3%,u,-1%,2%,0.12µM*
COc1cc(/C=C2\CCc3ccccc3C2=O)cc(OC)c1OC,5%,267%,-28%,u,0%[46.1 µM],24%,x,x,x
c1ccc(OCCNc2ccn3nc(-c4cccs4)cc3n2)cc1,x,5%,x,-1%,x,x,x,x,x

# Full records from above.
# Entry for O=C(Nc1ccc(OC(F)F)cc1)c1nc(SCc2ccccc2F)ncc1Cl → A549 tox-1: x; ClpP mod: -1%; Nrf2 inh: x; Nrf2 activator: x; TCR activator: x; miR-21 reporter: x; FLuc enzyme inh: x; A549 tox-2: x; Nrf2 ARE inh: x
# Entry for O=C(Nc1cc(F)ccc1F)N1CCC(CN2CCOCC2)CC1 → A549 tox-1: -9%; ClpP mod: 1%; Nrf2 inh: -4%; Nrf2 activator: 1%; TCR activator: x; miR-21 reporter: -9%; FLuc enzyme inh: x; A549 tox-2: x; Nrf2 ARE inh: x
# Entry for Cc1cc(N(C)C)cc(C)c1/C=C/c1cc[n+](C)c2ccccc12 → A549 tox-1: x; ClpP mod: -18%; Nrf2 inh: x; Nrf2 activator: x; TCR activator: x; miR-21 reporter: x; FLuc enzyme inh: -12%; A549 tox-2: -22%; Nrf2 ARE inh: x

# Additional structures.
SMILES,A549 tox-1,ClpP mod,Nrf2 inh,Nrf2 activator,TCR activator,miR-21 reporter,FLuc enzyme inh,A549 tox-2,Nrf2 ARE inh
O=C(COc1ccc(Cl)cc1)OCc1ccc(Cl)cc1,-4%,x,1%,0%,-1%,x,x,x,x
CCOc1ccc(C(=O)Nc2ccc(N3CCN(C(C)=O)CC3)cc2)cc1[N+](=O)[O-],6%,-2%,u,3%,-17%,1%,x,x,x
CC(=O)N1CCN(c2ccc(Oc3ccc([N+](=O)[O-])c(C(F)(F)F)c3)cc2)CC1,u,x,8.2µM*,0%,-2%,29%,-1%,-9%,8.2µM*
Nc1c(Cl)cc(-c2csc(N3CCCC3c3nc4cc(Cl)c(N5CCCCC5)cc4n3CCCO)n2)cc1Cl (centres undefined),-2%,0%,7%,4%,5%,x,x,x,x
Cc1c(Cl)cccc1-c1ccc(C(=O)Nc2ccc3oc(-c4cccnc4)nc3c2)o1,0%,-6%,u,3%,x,0%,x,x,x
O=C(Nc1ccc2oc(-c3cccnc3)nc2c1)c1ccc(-c2cccc(OC(F)(F)F)c2)o1,-3%,5%,1.5µM*,4%,x,20%,-24%,-9%,1.8µM*
c1cc2[nH]snc2c2nc(C3CC3)nc12,-5%,-27%,7.3µM*,2%,1%,12%,u,0%,13µM*
COCCNC(=O)C1C(=O)Nc2ccccc2C(=O)N1Cc1ccccc1 (centres undefined),x,-1%,x,x,x,x,x,x,x
COc1cccc(-c2ccc3c(c2)C2CC3CCN2C(C)=O)c1 (centres undefined),1%,-3%,-18%,6%,-2%,x,x,x,x
O=S(=O)(Nc1ccc(Cc2ccncc2)cc1)c1ccc(Br)cc1,-13%,0%,u,3%,-2%,8%,x,x,x
O=S(=O)(Nc1ccc(Cc2ccncc2)cc1)c1ccc(Cl)cc1,-16%,x,9.2µM*,1%,-3%,1%,0%,-1%,16µM*
O=C(CSc1c2c(nc3ccc(Cl)cc13)CCCC2)N1CCN(c2cccc(Cl)c2)CC1,-27%,-5%,9.2µM*,26%,x,26%,2%,u,u
COc1ccc(N2CCN(C(=O)CSc3c4c(nc5ccc(Cl)cc35)CCCC4)CC2)cc1,-21%,-9%,u,u,x,28%,x,x,x
O=C(CSc1c2c(nc3ccc(Cl)cc13)CCCC2)N1CCN(c2ccc(Cl)cc2)CC1,u,-8%,2.9µM*,9%,x,-1%,-1%,u,21µM*
CCc1ccc(CNC(=O)CSc2c3c(nc4ccc(Cl)cc24)CCCC3)cc1,-3%,1%,2%,7%,x,-2%,x,x,x
Cc1ccc(-c2nc(CS(=O)(=O)CC(=O)N3CCN(c4cccc(C)c4C)CC3)c(C)o2)cc1,3%,-3%,21%,0%,x,1%,x,x,x
O=C(COc1cccc2ccccc12)N1CCN(c2ccccc2)CC1,2%,-6%,x,1%,-2%,-8%,x,x,x
COc1ccc(N2CCN(C(=O)COc3cccc4ccccc34)CC2)cc1,u,-6%,2.6µM*,-1%,3%,-12%,-6%,8%,-5%
